## scFv variants of Ab-14 (light chain) against a SARS-CoV-2 spike peptide

All variants were tested on one target, the spike HR2 peptide PDVDLGDISGINAS (SARS-CoV-2).

Ab-14 is the parent antibody, in scFv form: VH, then a (GGGGS)3 linker, then VL. The heavy chain is unchanged in all variants.
VH: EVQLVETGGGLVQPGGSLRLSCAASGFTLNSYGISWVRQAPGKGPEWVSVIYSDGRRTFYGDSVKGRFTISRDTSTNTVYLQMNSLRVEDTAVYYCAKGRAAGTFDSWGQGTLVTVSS
VL: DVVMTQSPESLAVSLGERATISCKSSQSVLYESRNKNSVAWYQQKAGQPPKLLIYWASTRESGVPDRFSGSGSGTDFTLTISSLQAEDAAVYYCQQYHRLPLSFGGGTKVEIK

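The starting antibody came from a phage panning campaign against this peptide. In library AAYL50, one, two or three CDR residues were substituted; doubles and triples were drawn at random. AlphaSeq pools MATa yeast showing the antibodies with MATalpha yeast showing the peptide. After mating in shaken culture at 30 °C for 16 h, diploids were selected and their barcode pairs sequenced. Scores were corrected for input abundance and mapped to Kd with protein pairs of known affinity run in the same pool. Mating was done three times.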

Positions count from residue 1 of the parent VL; K24W puts W in place of K.
Values are log10 of the apparent Kd in nM; lower means stronger binding.
The mean shown is taken over the replicates in which the pair was detected.
Where no diploid with the target was found in that replicate, the entry reads "ND": below detection, most likely a poor binder, though not proof of it.
In this assay the parent's reference entry averaged 0.65; its copy inside this library read 1.68.
As a blank, each scFv also met three strains without target: over library AAYL50, 18% of these pairings were detected, typically at 4.19 and seldom below 2.99. Also given: how often the same scFv was detected with the empty control strains, with their mean in brackets.

changes,log10 Kd (nM) by replicate,"mean, log10 nM",signal with controls
K24W/S28D/R60S,ND 3.35 5.15,4.25,3/9 (5.13)
E32M/Q95I/H98K,ND ND ND,ND,0/9
R34A/S58C/R99Q,ND ND ND,ND,1/9 (3.95)
S33C/S62Y/Q95W,1.61 1.56 1.68,1.62,3/9 (4.66)
V29H/N37C/Y97T,ND ND ND,ND,0/9
S33I/R60F/Y97T,ND ND ND,ND,4/9 (4.97)
Y31K/T59C/P101I,2.82 3.64 3.82,3.43,4/9 (3.89)
S28K/E32Q/E61S,ND ND ND,ND,0/9
S38D/Q96E/P101W,ND 3.47 ND,3.47,1/9 (3.71)
R34Y/N35D/P101H,ND 3.67 ND,3.67,3/9 (3.69)
S25P/S38Y/A57H,ND ND ND,ND,0/9
K36Y/R99C,4.17 3.39 4.70,4.09,0/9
S25F/Q96F,2.07 1.89 1.98,1.98,1/9 (4.47)
L30P/W56Y/T59R,2.12 2.02 2.40,2.18,5/9 (4.89)
S28Q/L30F/E32C,ND ND ND,ND,0/9
L30M/S58T/Q96E,1.33 1.50 1.29,1.37,0/9
V29G/R34T/Q96H,0.69 0.88 0.75,0.78,4/9 (3.92)
S28K/S33M/R60M,4.07 ND ND,4.07,0/9
Y31S/R34K/S38Y,3.09 2.58 5.07,3.58,4/9 (4.62)
S26Q,ND 3.01 ND,3.01,1/9 (4.08)
L30H/A57S/H98W,2.34 2.11 1.81,2.09,5/9 (4.10)
Q27N/S33A/Y97E,1.32 1.22 1.01,1.18,0/9
V29N/L30D/S33Q,0.89 1.06 1.11,1.02,1/9 (3.83)
A40T/S58F/S103F,ND ND 3.99,3.99,1/9 (4.03)
Y31H/A40I/L102N,ND 4.34 ND,4.34,4/9 (4.72)
Q27S/V29K/S62V,1.11 1.14 1.29,1.18,0/9
S26T/H98G/L100T,ND ND ND,ND,0/9
Y31G/N35K/P101L,ND ND ND,ND,2/9 (3.13)
S26Y/L30R/N37S,2.37 2.75 3.80,2.97,3/9 (4.34)
E32K/S58Q/Y97E,ND ND ND,ND,3/9 (4.61)
V29A/A57R/E61Q,ND ND 3.00,3.00,0/9
Q95D/Q96R,ND 4.09 5.26,4.67,6/9 (4.44)

Top 5 of the variants detected in all replicates, tightest first:

changes,log10 Kd (nM) by replicate,"mean, log10 nM",signal with controls
V29G/R34T/Q96H,0.69 0.88 0.75,0.78,4/9 (3.92)
V29N/L30D/S33Q,0.89 1.06 1.11,1.02,1/9 (3.83)
Q27S/V29K/S62V,1.11 1.14 1.29,1.18,0/9
Q27N/S33A/Y97E,1.32 1.22 1.01,1.18,0/9
L30M/S58T/Q96E,1.33 1.50 1.29,1.37,0/9

From the AlphaSeq antibody data of Engelhart et al. 2022 (doi:10.1038/s41597-022-01779-4), copy in the FLAb collection.